Molecular target: Purified rabbit muscle actin (Cytoskeleton Inc.) (rabbit, UniProt P68135 3-377)
Test: cell-based or functional assay

bundling activity at molar ratio peptide:actin = 1:1: 1 molar ratio peptide:actin
effective peptide to actin ratio for bundling: > 16 molar ratio peptide:actin
Binder: SRFEVWPYL [SS16 less active synthetic peptide]

— patent US20080280358A1 (University of California, published 2008)
